Results taken from US11505576B2, “Polypeptides based on a scaffold” (AFFIBODY AB, priority 2018, dated 2022).

Assay: Circular dichroism spectroscopy analysis (CD spectra, variable temperature measurement, refolding)
Format: physicochemical
Settings: Table 3, mutation study 1; MGSSHHHHHHGSS-[Y#####]
Description: The respective Y variant was diluted to 0.5 mg/ml in PBS. A CD spectrum at 250-195 nm was obtained at 20° C. In addition, a variable temperature measurement (VTM) was performed to determine the melting temperature (Tm). In the VTM, absorbance was measured at 221 nm while the temperature was raised from 20° C. to 90° C. with a temperature gradient of 5° C./min. A new CD spectrum was obtained at 20° C. after the heating procedure, in order to study the refolding ability of the Y variants. The CD measurements were performed on a Jasco J-810 spectropolarimeter (Jasco Scandinavia AB) using a cell with an optical path length of 1 mm.
Produced Y variants were subjected to CD and SPR analyses according to the methods described in Example 1.
The Y variants were cloned, produced and characterized according to the general methods described in Example 1. […]
Produced Y variants were subjected to CD and SPR analyses according to the methods described in Example 1. In addition, CD spectra of selected IL-6 binding variants were also recorded at 60, 70, 80 and 90° C.
The Y variants were cloned, produced and characterized according to the general methods described in Example 1. […] In addition, CD spectra of the IL-6 binding variants were also recorded at 60, 70, 80 and 90° C.

“Y00273: insulin binding Y variant, Y00032 with E32Q, SEQ ID NO:120 (LAEAKEAAIAELDSKGVGAYQKSFIELAKSVQHVELLKEAILADLP; Engineered insulin binding Y variant)” showed a Tm of 46 °C.
